Measured values from EPA's ToxRefDB 2.

Key:
[1] = test system: rat; conditions: Prenatal developmental toxicity study, sprague dawley, Oral, Gavage/Intubation, dose end: 12 day
[2] = test system: rabbit; conditions: Prenatal developmental toxicity study; new zealand white; Oral; Gavage/Intubation; dose end: 13 day; group: maternal; reproductive / reproductive performance / resorptions / resorptions + systemic / in life observation / clinical signs / hyperactivity + …
[3] = test system: rat; conditions: Prenatal developmental toxicity study, sprague dawley, Oral, Gavage/Intubation, dose end: 21 PND
[4] = test system: rabbit; conditions: Prenatal developmental toxicity study, new zealand white, Oral, Gavage/Intubation, dose end: 19 day, group: maternal
[5] = test system: rat; conditions: Prenatal developmental toxicity study, other, Oral, Gavage/Intubation, dose end: 19 GD
[6] = test system: dog; conditions: Chronic toxicity, beagle, Oral, Feed, dose end: 24 month
[7] = test system: rabbit; conditions: Prenatal developmental toxicity study, other, Oral, Gavage/Intubation, dose end: 18 GD
[8] = test system: mouse; conditions: Prenatal developmental toxicity study, Oral, Gavage/Intubation, dose end: 12 day
[9] = test system: rat; conditions: Sub-acute repeat dose toxicity; Oral; Gavage/Intubation; dose end: 7 day; group: systemic; systemic / clinical chemistry / globulins / globulins + systemic / clinical chemistry / bilirubin / total bilirubin + systemic / organ …
[10] = test system: mouse; conditions: Prenatal developmental toxicity study, Oral, Gavage/Intubation, dose end: 12 day; remark: listed apart in the source
[11] = group: developmental, systemic / in life observation / body weight / fetal weight
[12] = group: maternal, systemic / in life observation / body weight / body weight + systemic / in life observation / body weight / body weight gain + systemic / in…
[13] = systemic / in life observation / body weight / body weight + systemic / in life observation / clinical signs / body cold to touch + systemic…
[14] = group: maternal, systemic / in life observation / clinical signs / anogenital staining
[15] = group: maternal, systemic / in life observation / clinical signs / anogenital staining + reproductive / reproductive performance / resorptions / resorptions…
[16] = group: cholinesterase, cholinesterase / cholinesterase / cholinesterase / cholinesterase (che)
[17] = group: systemic, systemic / clinical chemistry / alkaline phosphatase (alp/alk) / alkaline phosphatase (alp/alk) + systemic / clinical chemistry / aspartate …
[18] = group: developmental, developmental / developmental malformation / bone / [other] + developmental / developmental malformation / bone / absent + developmental / …
[19] = group: maternal, systemic / in life observation / mortality / mortality
[20] = group: maternal, systemic / in life observation / mortality / mortality + reproductive / reproductive performance / resorptions / resorptions + systemic / in…

`CNCc1cc(F)ccc1Oc1ccc(Cl)c(Cl)c1` was tested, and the LEL [1, 11] was 100 mg/kg/day, the LOAEL [1, 11] was over 100 mg/kg/day and the NOAEL [1, 11] was at least 100 mg/kg/day. For the same molecule, the LEL [1, 12] was 50 mg/kg/day, the LOAEL [1, 12] was over 100 mg/kg/day and the NOAEL [1, 12] was at least 100 mg/kg/day. For the same molecule, the LEL [2] was 30 mg/kg/day, the LOAEL [2] was over 75 mg/kg/day and the NOAEL [2] was at least 75 mg/kg/day.
`CC(Cc1ccc(C(C)(C)C)cc1)CN1C[C@@H](C)O[C@@H](C)C1` (stereo partly drawn) [(2R,6S)-Fenpropimorph] gave an LOAEL ([3]; group: developmental, developmental / offspring survival late / [other] / [other] + systemic / in life observation / clinical signs / grip strength) of 40 mg/kg/day and an LOAEL ([3]; group: maternal, reproductive / reproductive performance / postimplantation loss / postimplantation loss + systemic / in life observation / body weight / …) of 40 mg/kg/day.
`CO/C=C(/C(=O)OC)c1ccccc1Oc1cc(Oc2ccccc2C#N)ncn1` [Azoxystrobin] gave an LOAEL [4, 13] of over 800 mg/kg/day, an NOAEL [4, 13] of at least 800 mg/kg/day and an LEL ([4]; systemic / in life observation / body weight / body weight + systemic / in life observation / clinical signs / no feces + systemic / in life…) of 200 mg/kg/day.
`CCOc1nc(C(Cl)(Cl)Cl)ns1` [Etridiazole] was tested, and the LEL [5, 11] was 75 mg/kg/day, the LOAEL [5, 11] was 75 mg/kg/day and the NEL [5, 11] was 30 mg/kg/day. It also gave an NOAEL [5, 11] of 30 mg/kg/day, an LEL [5, 14] of 30 mg/kg/day and an LOAEL [5, 14] of 30 mg/kg/day. It also gave an NEL [5, 15] of 10 mg/kg/day, an NOAEL [5, 15] of 10 mg/kg/day and an LEL [6, 16] of 25 mg/kg/day. The LOAEL [6, 16] was over 25 mg/kg/day, the NEL [6, 16] was 2.5 mg/kg/day and the NOAEL [6, 16] was at least 25 mg/kg/day. It also gave an LEL [6, 17] of 25 mg/kg/day, an LOAEL [6, 17] of 25 mg/kg/day and an NEL [6, 17] of 2.5 mg/kg/day. For the same molecule, the NOAEL [6, 17] was 2.5 mg/kg/day, the LEL [7, 18] was 45 mg/kg/day and the LOAEL [7, 18] was 45 mg/kg/day. The NEL [7, 18] was 15 mg/kg/day, the NOAEL [7, 18] was 15 mg/kg/day and the LOAEL [7, 19] was 45 mg/kg/day. The LEL ([7]; group: maternal, systemic / in life observation / mortality / mortality + reproductive / reproductive performance / resorptions / resorptions + reproductive…) was 45 mg/kg/day, the NEL [7, 20] was 15 mg/kg/day and the NOAEL [7, 20] was 15 mg/kg/day.
For `CCc1nn(CCO)c(CC)c1Oc1cc(C#N)cc(C#N)c1` [Lersivirine], the LEL [8, 11] was 350 mg/kg/day, the LOAEL [8, 11] was over 700 mg/kg/day and the NOAEL [8, 11] was at least 700 mg/kg/day. It also gave an LOAEL [8, 12] of over 700 mg/kg/day, an NEL [8, 12] of 150 mg/kg/day and an NOAEL [8, 12] of at least 700 mg/kg/day. For the same molecule, the LEL ([8]; group: maternal, systemic / in life observation / food consumption / food consumption) was 350 mg/kg/day, the LEL [9] was 150 mg/kg/day and the LEL ([10]; group: developmental, developmental / developmental malformation / bone / incomplete ossification + systemic / in life observation / body weight / fetal weight) was 350 mg/kg/day. The LEL [10, 19] was 150 mg/kg/day and the NEL [10, 19] was under 150 mg/kg/day.
